Among the data in PubChem BioAssay AID504894 (National Center for Advancing Translational Sciences (NCATS), 2011) are activation of IL-2 secretion values, retold here.

The entries are a selection whose mix differs from that of the whole data set. Active and inactive are the calls of the source. Calls come from the whole dose curve; as a rule, active = well fitted activation curve with a large enough effect; inconclusive = small, poorly fitted or top-dose-only effect, or another doubt; inactive = no such curve, though single readings can be large or run the other way.

This assay is described as follows: Activators of T cell receptors: qHTS campaign. Note: % of control where 0% means no effect. As to conditions: primary human leukocytes, anti-CD3, IL-2 HTRF, 48 h; at 9.22 µM (top of the series) unless noted. The source says:
Normally activation of naive T cells requires two signals. 1. A signal through the T cell receptor (TCR) which provides antigen specificity to the response. 2. Signals through co-stimulatory molecules, which are necessary for proliferation, survival and cytokine production. In the absence of co-stimulatory signals T cells are not effectively activated, and may even be rendered anergic or unresponsive to subsequent signaling. This lack of costimulation has been shown in multiple model systems to be a major factor in the limited strength and effectiveness of anti-tumor T cell responses. The goal of this project is to identify small molecule compounds that will stimulate T cell activation in the presence of TCR signaling but in the absence of co-stimulatory signals, thereby allowing activation of naive T cells in the absence of co-stimulation. Identification of such compounds would have clear experimental and clinical applications in instances where desirable antigen-specific immune responses are not generated due to a lack of co-stimulation, for example in the generation of anti-tumor responses. In collaboration between the National Cancer Institute and NIH Chemical Genomics Center, a high-throughput amenable screen was developed to discover small molecules that co-stimulate and activate human T cell receptors. The screen will be carried out using a novel homogeneous time resolved fluorescence energy transfer (HTRF) assay to measure production of the cytokine IL-2 by activated T cells and will be tested against the NIH Molecular Libraries Small Molecule Repository (MLSMR). NIH Chemical Genomics Center [NCGC] NIH Molecular Libraries Probe Centers Network [MLPCN] MLPCN Grant: MH090820-01 Assay Submitter (PI): Richard Hodes, National Cancer Institute, NIH
Primary human leukocytes are incubated with a-CD3 beads and compounds for 48 hr. The amount of secreted IL-2 is then assayed with a HTRF IL-2 kit. The presence of IL-2 cytokine captures the detection reagents and brings the a-IL-2-K and a-IL-2-d2 into close proximity. Upon excitation with 320nm light, the europium cryptate is capable of transferring energy to acceptor molecules within close proximity, resulting in acceptor molecule emission at 665nm.
In general terms: Quantitative high-throughput screening tests each substance at several concentrations.
In the case of `CCc1cc(O)c([N+](=O)[O-])c(C)c1[N+](=O)[O-]`, the activation of IL-2 secretion is inactive: 2.91%.

`CC(C)(C)C(=O)NC(Sc1ccccc1)C(Cl)(Cl)Cl` (centres undefined): the activation of IL-2 secretion was inactive: 2.14%.

As to `O=P1(Nc2nc3ccc(Cl)cc3s2)COc2ccccc2O1` (centres undefined), the activation of IL-2 secretion was inactive: 3.23%.

With `CCOc1ccc(C2=NCC(CBr)S2)cc1` (centres undefined), the activation of IL-2 secretion was inactive: -3.48%.

Consider `CC(=O)Nc1ccc([As](=O)(O)O)c(O)c1`, for which the activation of IL-2 secretion is inactive: 11.8%.

`CC(=O)Nc1ccc(Oc2c([N+](=O)[O-])cc([N+](=O)[O-])cc2[N+](=O)[O-])cc1`: the activation of IL-2 secretion was inactive: 4.99%.

Turning to `N#C/C(=C\c1ccc(N(CCBr)CCBr)cc1)C(N)=O`, the activation of IL-2 secretion is inactive: -7.33%.

On to `CC(=O)c1ccc(N2CC2c2ccncc2)cc1` (centres undefined), for which the activation of IL-2 secretion was inactive: -8.62%.

On to `COC(=O)C1(C)COP(=O)(NCc2ccccc2)OC1` (centres undefined), for which the activation of IL-2 secretion was inactive: -2.92%.

With `Cc1ccccc1CN(C)C(=O)COC(=O)C(O)(c1ccccc1)c1ccccc1`, the activation of IL-2 secretion is inactive: -1.46%.

Regarding `C[C@@H]1C=CCP(=O)(Oc2ccccc2)O1` (some centres undefined), the activation of IL-2 secretion is inactive: 6.32%.

In the case of `C[C@H]1OP(=O)(Oc2ccccc2)C[C@@H]2O[C@@H]21` (some centres undefined), the activation of IL-2 secretion is inactive: -3.64%.

As to `O=P1(N(CCCl)CCCl)OCCC2CCCCN21` (centres undefined), the activation of IL-2 secretion is inactive: 3%.

`O=C(NC1CCS(=O)(=O)C1)NP(=S)(Oc1ccccc1)Oc1ccccc1` (centres undefined): the activation of IL-2 secretion was inactive: -5.76%.

As to `CCNC(=S)/N=C(\N)N[N+](=O)[O-]`, the activation of IL-2 secretion was inactive: -1.17%.

As to `c1ccc(-c2nn[nH]n2)c(-c2nn[nH]n2)c1`, the activation of IL-2 secretion was inactive: 6.15%.

For `Cc1ccc(NP(=O)(Oc2cccc(C)c2)Oc2cccc(C)c2)nc1`, the activation of IL-2 secretion was inactive: -3.05%.

Regarding `Cc1ccccc1OP(=O)(Nc1ccccn1)Oc1ccccc1C`, the activation of IL-2 secretion is inactive: -2.89%.

As to `CC(NC(=O)COC(=O)C(O)(c1ccccc1)c1ccccc1)c1ccccc1` (centres undefined), the activation of IL-2 secretion is inactive: -3.43%.

For the compound `CN(C)C(=O)Oc1noc2ccccc12`, the activation of IL-2 secretion is inactive: 1.27%.

With `O=c1c2cc([N+](=O)[O-])ccc2[nH]c2c([N+](=O)[O-])cc([N+](=O)[O-])cc12`, the activation of IL-2 secretion is inactive: 3.35%.

With `COC(=O)c1cc2c(s1)N=C(c1ccccc1)N(C)P2(=O)N1CCOCC1` (centres undefined), the activation of IL-2 secretion was inactive: 2.34%.

Regarding `Cc1ccc(OP(=O)(Nc2ccccn2)Oc2ccc(C)cc2)cc1`, the activation of IL-2 secretion was inactive: 3.16%.

`CC(=O)NC(SC(=S)N(CC(C)C)CC(C)C)C(Cl)(Cl)Cl` (centres undefined): the activation of IL-2 secretion is inactive: 0.779%.

Take `O=C(OC1CN2CCC1CC2)c1ccccc1` (centres undefined): the activation of IL-2 secretion was inactive: 2.79%.

`CCC(=O)N1C2C3N(C(=O)CC)C1C1N(C(=O)CC)C(C(N1C(=O)CC)N3C(=O)CC)N2C(=O)CC`: the activation of IL-2 secretion is inactive: -9.08%.

Consider `O=P(Nc1nc2ccccc2s1)(c1ccccc1)c1ccccc1`, for which the activation of IL-2 secretion was inactive: 5.45%.

As to `C[C@H]1OP(=O)(Oc2ccccc2)[C@H](O)[C@H](O)[C@H]1N=[N+]=[N-]` (some centres undefined), the activation of IL-2 secretion was inactive: -3.13%.

As for `COc1ccc(N)c([N+](=O)[O-])c1[N+](=O)[O-]`, the activation of IL-2 secretion is inactive: -2.22%.

Turning to `CN(C)C1(CNC(=O)c2ccc(Cl)c(S(N)(=O)=O)c2)CCCCC1`, the activation of IL-2 secretion was inactive: -2.15%.

For `O=P(Nc1ccccn1)(c1ccc(Br)cc1)c1ccc(Br)cc1`, the activation of IL-2 secretion was inactive: 1.82%.

On to `Nc1ccc([As](=O)(O)c2ccc([N+](=O)[O-])cc2)cc1`, for which the activation of IL-2 secretion was inactive: -7.06%.

Consider `C(Cc1nn[nH]n1)Cc1nn[nH]n1`, for which the activation of IL-2 secretion is inactive: -0.811% [at 46.1 µM].

As to `O=C(OC1CN2CCC1CC2)c1cccc(Cl)c1` (centres undefined), the activation of IL-2 secretion was inactive: -5.24%.

Take `O=[N+]([O-])c1ncn(CCn2cnc([N+](=O)[O-])n2)n1`: the activation of IL-2 secretion was inactive: -9.6%.

As for `CC(=O)NC(SC(=S)N(C)C)C(Cl)(Cl)Cl` (centres undefined), the activation of IL-2 secretion is inactive: 2.38% [at 46.1 µM].

`O=[N+]([O-])c1ccc(O)c(/C=N/Nc2ccc([N+](=O)[O-])cc2[N+](=O)[O-])c1`: the activation of IL-2 secretion is inactive: -1.84%.

As for `O=[As](O)(c1ccccc1)c1ccc(O)cc1`, the activation of IL-2 secretion is inactive: -3.82%.

Turning to `c1nnnn1CCn1cnnn1`, the activation of IL-2 secretion is inactive: -6.69%.

On to `O=P(Nc1nccs1)(c1ccccc1)c1ccccc1`, for which the activation of IL-2 secretion is inactive: 1.01%.

With `CC(C)C(=O)NC(Sc1ccccc1)C(Cl)(Cl)Cl` (centres undefined), the activation of IL-2 secretion was inactive: -5.35% [at 46.1 µM].

On to `CC(=O)N1C2C3N(C(C)=O)C1C1N(C(C)=O)C(C(N1C(C)=O)N3C(C)=O)N2C(C)=O`, for which the activation of IL-2 secretion was inactive: 0.577%.

For the compound `O=[N+]([O-])c1cccc2n[nH]nc12`, the activation of IL-2 secretion was inactive: -0.743%.

Take `Cc1ccc(NP(=O)(Oc2ccccc2)Oc2ccccc2)nc1`: the activation of IL-2 secretion was inactive: 1.37%.

As to `O=[N+]([O-])c1cc([N+](=O)[O-])c(CCNc2ccccc2)c([N+](=O)[O-])c1`, the activation of IL-2 secretion is inactive: -4.87%.

Turning to `CCc1nc2c(n1)c1c(non1O)c1c2no[n+]1[O-]`, the activation of IL-2 secretion is inactive: 1.52%.

As for `COc1ccc(C2=NCC(CBr)S2)cc1` (centres undefined), the activation of IL-2 secretion is inactive: 1.09%.

Consider `CC(C)=N/N=C(\N)N[N+](=O)[O-]`, for which the activation of IL-2 secretion is inactive: -2.15%.

Regarding `CN(C)C(=O)OCCc1n(C)cc[n+]1C`, the activation of IL-2 secretion is inactive: -4.94% [at 46.1 µM].
